Each structure is given as a SMILES string.

Sequences of proteins named here, by UniProt entry; tags and fusion partners are left off.
UniProt P62937, whole entry: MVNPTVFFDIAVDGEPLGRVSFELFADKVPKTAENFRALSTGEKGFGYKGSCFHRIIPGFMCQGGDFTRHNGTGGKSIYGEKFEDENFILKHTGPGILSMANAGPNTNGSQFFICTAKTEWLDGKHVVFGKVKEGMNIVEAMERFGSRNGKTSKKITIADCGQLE

In general, IC50 refers to the midpoint of a concentration-inhibition curve. A low value points to greater potency. As a reminder, the inhibition is how much of the control response was suppressed.

The target in the first assay is CyP A (Homo sapiens, UniProt P62937). The experiment in a line: biochemical.
Conditions: not given
As for the experimental part: A number of substrates for rotamase are known in the art or can be derived from those known. Typically, the substrate contacts a sample containing a protein with rotamase activity and the conversion of the substrate is detected after a period of time. The method for detecting conversion of the substrate will vary with the particular substrate chosen.
The following were added to a plastic cuvette: […] of ice cold assay buffer (25 mM HEPES, pH 7.8, 100 mM NaCl), 10 μL of CyP A (2.5 μM in 10 mM Tris-Cl pH 7.5, 100 mM NaCl, 1 mM dithiothreitol), 25 μL of chymotrypsin (50 mg/ml in 1 mM HCl), and 10 μL of test compound, at various concentrations, in dimethyl sulfoxide. The reaction was initiated by the addition of 5 μL of substrate (succinyl-Ala-Phe-Pro-Phe-para-nitroanilide, 5 mg/mL in 470 mM LiCl in trifluoroethanol). The absorbance at 390 nm versus time was monitored for 90 seconds using a spectrophotometer.
While CyP A is used in these examples, other CyP proteins can be substituted.
`CSc1ccc(Cl)cc1C(=O)Nc1cccc(NC(=O)c2cc(Cl)ccc2SC)c1` [Compound 6] gave a half-maximal inhibitory concentration (IC50) of 1.02 µM.

Compound `O=C(Nc1ccccc1)Nc1cc(NC(=O)Nc2ccccc2)cc(C(F)(F)F)c1` [Compound 7] gave a half-maximal inhibitory concentration (IC50) of 1.9 µM. For `O=C(Nc1cc(Cl)cc(Cl)c1)c1cccc(C(=O)Nc2cc(Cl)cc(Cl)c2)c1` [Compound 14], 0.97 µM corresponded to half-maximal inhibition (IC50).

`O=C(NCc1cccc2ccccc12)c1cccc(NC(=O)c2cc(Cl)cc(Cl)c2)c1` [Compound 16, {3-[(3,5-dichlorophenyl)carbonylamino]phenyl}-N-(naphthylmethyl) formamide] showed a 50% inhibitory concentration (IC50) of 1 µM. Still for that read-out and setting: the same measure for `O=C(Nc1cccc(NC(=O)N(c2ccccc2)c2ccccc2)c1)N(c1ccccc1)c1ccccc1` [Compound 22]: 8.2 µM; for `O=C(NCC1CCCC(CNC(=O)Nc2cc(Cl)cc(Cl)c2)C1)Nc1cc(Cl)cc(Cl)c1` (centres unmarked) [Compound 25]: 3.25 µM. `O=C(NCC1CCCC(CNC(=O)Nc2cc(Br)cc(Br)c2)C1)Nc1cc(Br)cc(Br)c1` (centres unmarked) [Compound 26] registered an IC50 of 5.64 µM. The compound `O=C(NCc1cccc(CNC(=O)Nc2ccc(Br)cc2Br)c1)Nc1ccc(Br)cc1Br` [Compound 31] showed an IC50 of 3.9 µM.

The same assay, now with this note: read-out: % Inhibition at 10 μM.
For the compound `O=C(Nc1ccc(I)cc1)Nc1cc(NC(=O)Nc2ccc(I)cc2)c(Br)cc1Br` [Compound 3], the inhibition at 10 µM came to 100%. Still for that read-out and setting: the same measure for `O=C(Nc1cccc2ccccc12)NC1CCCC(NC(=O)Nc2cccc3ccccc23)C1` (centres unmarked) [Compound 10]: 99%; for `O=C(Nc1cccc(NC(=O)Nc2cnccn2)c1)Nc1cnccn1` [Compound 33]: 2%.

(Values after patent US6593362B2, “Non-peptidic cyclophilin binding compounds and their use” (Guilford Pharmaceuticals Inc., priority 2001, dated 2003).)
